{"source": "patent US11371040B2", "about": "“Endonuclease-barcoding” (priority 2015, dated 2022)", "type_in_all_cases": "cell-based", "key": {"PC9 cells [1]": {"test_system": "PC9 cells", "experiment": "Invasion assay of EGFR-barcoded PC9 cells (matrigel Boyden chambers)", "conditions": "pre-treated two days, 24 hr in chamber, 0.5 μM"}, "PC9 cells [2]": {"test_system": "PC9 cells", "experiment": "Multiplexed CRISPR-barcoding (EGFR-T790M, KRAS-G12D, EML4-ALK) in PC9 cell culture", "conditions": "multiplex CRISPR-barcoded PC9 cells"}, "PC9 cells [3]": {"test_system": "PC9 cells", "protocol": "Oligos encoding the targeting sequence were then annealed and ligated into the pSpCas9(BB)-2A-Puro (Ran et al., 2013) vector digested with Bbsl (New England Biolabs). […] The set of silent mutations is designed to enable PCR specificity and to avoid recognition by the corresponding sgRNA used to cleave the endogenous sequence. For each targeted locus, cells were co-transfected with 2 μg of the CRISPR/Cas9 plasmid and […] of either the control or the sense/nonsense ssODN (50 μM). Immediately after transfection, the cells were pooled in the same flask.\ngDNA was extracted using the NucleoSpin Tissue kit (Macherey-Nagel). Total RNA was isolated using the Tri-Reagent (Sigma-Aldrich) and the RNeasy kit (Qiagen), DNase digested and reverse-transcribed using the Improm-II Reverse Transcription System (Promega). The sequence of the different PCR primers, designed using Primer-BLAST (NCBI), is provided in the sequence listing (SEQ ID N^o30-57). […] Primer specificity for each particular barcode was assessed. qPCR was performed from 100 ng of gDNA using SYBR Green (Life Technologies) on a 7900 HT Fast-Real-Time, a Q-PCR ABI PRISM 7500 or a QuantStudio Flex PCR System (Life Technologies). qPCR analysis was performed using the standard curve or the Pfaffl methods (Pfaffl, 2001)."}}, "note": "Entries after “also recorded” stand apart in the source; their conditions may differ.", "data": [{"smiles": "COc1cc2ncnc(Nc3ccc(F)c(Cl)c3)c2cc1OCCCN1CCOCC1", "note": "[gefitinib]", "values": [{"measurement": "EGFR-T790M barcode in cells that migrated through the matrigel-coated membrane vs cells inside the chamber", "setting": "PC9 cells [1]", "result": "dramatically enriched"}, {"measurement": "enrichment of the EGFR-T790M, KRAS-G12D and EML4-ALK sequences", "setting": "PC9 cells [2]", "result": "specific enrichment"}, {"measurement": "enrichment of EGFR-T790M containing cells", "setting": "PC9 cells [3]", "result": "readily detectable; also recorded: stronger effect"}]}]}
